Results: patent US20210393645A1, “TREATMENT FOR PROGRESSIVE MULTIPLE SCLEROSIS” (UTI LIMITED PARTNERSHIP, priority 2016, published 2021)

System: human neurons
Assay: Iron (FeSO4) mediated neurotoxicity screening, MAP-2 positive neurons counted
Details: Neuron, 24 h, read-out: Drug % control (mean): number of neurons normalized to untreated control

| SMILES | viability at 10 µM [%] |
| --- | --- |
| OC(CCN1CCCCC1)(c1ccccc1)C1CCCCC1 (stereo not shown) | 30.6 |
| CN1C(C(=O)Nc2ccccn2)=C(O)c2sccc2S1(=O)=O [TENOXICAM] | 25.9 |
| COc1cc(Cc2cnc(N)nc2N)cc(OC)c1OC [TRIMETHOPRIM] | 14 |
| COC(=O)[C@H](c1ccccc1Cl)N1CCc2sccc2C1 [CLOPIDOGREL SULFATE] | 53.5 |
| CNCCC=C1c2ccccc2CCc2ccccc21 [NORTRIPTYLINE] | 18.2 |
| CN(C)CCC=C1c2ccccc2C=Cc2ccccc21 | 98.4 |
| NC(N)=Nc1nc(CSCCC(N)=NS(N)(=O)=O)cs1 [FAMOTIDINE] | 25.2 |

Counter-ions that a name gives are not always drawn.
